Laboratory results from PubChem BioAssay (NCI).
Values joined by “and” are separate entries in the source; they are usually repeats but may differ in a detail not shown here. Identical values can stand only once. This is a selection; strong and weak results do not stand in their true shares.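 Results are percent growth after 48 hours of single-concentration exposure. 100 means growth as in untreated cells, lower positive values show inhibition; negative values down to -100 show cell death.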 Active and inactive are the calls of the source. Rule for the calls: active = growth percent below 10; inactive = the rest.

Assays:
Assay in all cases: NCI-60 one-dose screen, 48 h (100 = growth as untreated, 0 = no growth, -100 = all killed)
[1] = system: HCT-15 colon; details: 10 µM unless noted
[2] = system: HT29 colon; details: 10 µM unless noted
[3] = system: SNB-75 CNS; details: 10 µM unless noted
[4] = system: SNB-19 CNS; details: 10 µM unless noted
[5] = system: U251 CNS; details: 10 µM unless noted
[6] = system: PC-3 prostate; details: 10 µM unless noted
[7] = system: SK-MEL-5 melanoma; details: 10 µM unless noted
[8] = system: UACC-62 melanoma; details: 10 µM unless noted
[9] = system: LOX IMVI melanoma; details: 10 µM
[10] = system: SK-MEL-28 melanoma; details: 10 µM unless noted
[11] = system: SK-MEL-2 melanoma; details: 10 µM unless noted
[12] = system: EKVX NSCLC; details: 10 µM unless noted
[13] = system: SN12C renal; details: 10 µM unless noted
[14] = system: UO-31 renal; details: 10 µM unless noted
[15] = system: TK-10 renal; details: 10 µM unless noted
[16] = system: ACHN renal; details: 10 µM unless noted
[17] = system: CAKI-1 renal; details: 10 µM unless noted
[18] = system: A498 renal; details: 10 µM unless noted
[19] = system: HL-60(TB) leukemia; details: 10 µM unless noted
[20] = system: CCRF-CEM leukemia; details: 10 µM unless noted

| SMILES | growth [1] | growth [2] | growth [3] | growth [4] | growth [5] | growth [6] | growth [7] | growth [8] | growth [9] | growth [10] | growth [11] | growth [12] | growth [13] | growth [14] | growth [15] | growth [16] | growth [17] | growth [18] | growth [19] | growth [20] |
| --- | --- | --- | --- | --- | --- | --- | --- | --- | --- | --- | --- | --- | --- | --- | --- | --- | --- | --- | --- | --- |
| Cc1ccc(S(=O)(=O)n2cc([C@@]3(O)C[C@H](CC#N)OC3=O)c3ccccc32)cc1 | active: -14.3% | active: -10.1% | active: -4.02% | inactive: 33.8% | active: -3.77% | inactive: 14.2% | active: -43.5% | inactive: 24.5% | inactive: 16.7% | inactive: 49.2% | inactive: 36.3% | inactive: 27.5% | inactive: 24.8% | inactive: 20.3% | inactive: 21.3% | inactive: 22.2% | inactive: 18.2% | inactive: 10.3% | active: -43.1% | active: 6.81% |
| Clc1ccc(P(Cl)Cl)cc1 | inactive: 99.2% | inactive: 96.5% | inactive: 85.9% | inactive: 107% | inactive: 102% | inactive: 81.7% | inactive: 111% | inactive: 96.4% | inactive: 99.6% | inactive: 107% | inactive: 120% | inactive: 109% | inactive: 98.9% | inactive: 89.8% | inactive: 107% | inactive: 95.7% | inactive: 90.9% | inactive: 95.1% | inactive: 72.5% | inactive: 93.4% |
| O=P(O)(O)F | inactive: 101% | inactive: 106% | inactive: 114% | inactive: 106% | inactive: 93.1% | inactive: 93.2% | inactive: 101% | inactive: 102% | inactive: 99.3% | inactive: 119% | inactive: 121% | inactive: 105% | inactive: 99.4% | inactive: 84.1% | inactive: 113% | inactive: 100% | inactive: 93.5% | inactive: 92.8% | inactive: 110% | inactive: 100% |
| COc1cc([N+](=O)[O-])cc([N+](=O)[O-])c1 | inactive: 96.9% | inactive: 108% | inactive: 102% | inactive: 94.7% | inactive: 98.7% | inactive: 88% | inactive: 101% | inactive: 87.1% | inactive: 102% | inactive: 108% | inactive: 102% | inactive: 108% | inactive: 99.4% | inactive: 89% | inactive: 107% | inactive: 104% | inactive: 101% | inactive: 97.5% | inactive: 102% | inactive: 91% |
| CSc1ccc(Nc2c([N+](=O)[O-])cc([N+](=O)[O-])cc2[N+](=O)[O-])cc1 | inactive: 31.6% | inactive: 26.8% | inactive: 81.7% | inactive: 67.2% | inactive: 22.4% | inactive: 36.8% | inactive: 83.2% | inactive: 44.5% | inactive: 51.4% | inactive: 91% | inactive: 104% | inactive: 76.5% | inactive: 53% | inactive: 37.3% | inactive: 82.2% | inactive: 54.1% | inactive: 62.5% | active: -9.7% | inactive: 63.7% | inactive: 30% |
| CCN(CCCl)CC1COc2ccccc2O1 (stereo not given) | inactive: 100% | inactive: 108% | inactive: 99.5% | inactive: 104% | inactive: 95% | inactive: 97% | inactive: 103% | inactive: 101% | inactive: 94.7% | inactive: 113% | inactive: 108% | inactive: 106% | inactive: 101% | inactive: 78.4% | inactive: 92.8% | inactive: 106% | inactive: 99.5% | inactive: 109% | inactive: 110% | inactive: 109% |
| N/C(=N\N=C\c1ccc([N+](=O)[O-])o1)N[N+](=O)[O-] | inactive: 87.3% | inactive: 108% | inactive: 91.9% | inactive: 97% | inactive: 90.1% | inactive: 86.4% | inactive: 92.5% | inactive: 91.8% | inactive: 81.5% | inactive: 105% | inactive: 92.9% | inactive: 97.1% | inactive: 121% | inactive: 91.9% | inactive: 124% | inactive: 92% | inactive: 102% | inactive: 70.8% | inactive: 93.6% | inactive: 86.8% |
| COc1cc([N+](=O)[O-])c([N+](=O)[O-])cc1N | inactive: 103% | inactive: 112% | inactive: 92% | inactive: 101% | inactive: 101% | inactive: 87.7% | inactive: 99.3% | inactive: 88.7% | inactive: 111% | inactive: 97.1% | inactive: 107% | inactive: 92.6% | inactive: 101% | inactive: 95.1% | inactive: 98.4% | inactive: 102% | inactive: 105% | inactive: 91.8% | inactive: 78% | inactive: 88.5% |
| ClCCN(Cc1ccc(Cl)cc1)Cc1ccc(Cl)cc1 | inactive: 85.5% | inactive: 74.6% | inactive: 89.7% | inactive: 84.4% | inactive: 87.5% | inactive: 42% | inactive: 91% | inactive: 72.8% | inactive: 81.7% | inactive: 113% | inactive: 80.1% | inactive: 64.7% | inactive: 94.2% | inactive: 80.3% | inactive: 102% | inactive: 71.1% | inactive: 94.5% | inactive: 101% | inactive: 67.9% | inactive: 39.7% |
| CC(Cl)CN(CC(C)Cl)C(=O)c1ccccc1 (stereo not given) | inactive: 97.5% | inactive: 98.2% | inactive: 85.1% | inactive: 113% | inactive: 99.7% | inactive: 89.9% | inactive: 95.1% | inactive: 108% | inactive: 93.7% | inactive: 94.5% | inactive: 123% | inactive: 112% | inactive: 107% | inactive: 81.8% | inactive: 103% | inactive: 105% | inactive: 103% | inactive: 96.8% | inactive: 66.2% | inactive: 45.9% |
| CCOC(=O)Nc1ccc([As](=O)(O)O)c(O)c1 | inactive: 108% | inactive: 103% | inactive: 98.5% | inactive: 91.9% | inactive: 103% | inactive: 115% | inactive: 92.4% | inactive: 102% | inactive: 101% | inactive: 108% | inactive: 128% | inactive: 99.6% | inactive: 102% | inactive: 102% | inactive: 116% | inactive: 108% | inactive: 93.9% | inactive: 122% | inactive: 80.3% | inactive: 96.8% |
| Nc1ccc([As](=O)(O)c2ccc([N+](=O)[O-])cc2)cc1 | inactive: 106% | inactive: 111% | inactive: 92.8% | inactive: 95.3% | inactive: 111% | inactive: 89.7% | inactive: 97.3% | inactive: 98.7% | inactive: 90.3% | inactive: 117% | inactive: 115% | inactive: 95.6% | inactive: 101% | inactive: 81.7% | inactive: 119% | inactive: 92.9% | inactive: 94.6% | inactive: 108% | inactive: 88.4% | inactive: 102% |
| COC(=O)C1(C)COP(=O)(NCc2ccccc2)OC1 (stereo not given) | inactive: 113% | inactive: 99.2% | inactive: 93.7% | inactive: 98.8% | inactive: 107% | inactive: 104% | inactive: 104% | inactive: 90.7% | inactive: 95.2% | inactive: 112% | inactive: 98% | inactive: 105% | inactive: 93.6% | inactive: 81.9% | inactive: 88.6% | inactive: 110% | inactive: 98.1% | inactive: 77.1% | inactive: 83% | inactive: 92.8% |
| CC(Cl)CN(CC(C)Cl)C(=O)OCC(N)C(=O)O (stereo not given) | inactive: 121% and inactive: 98.4% | inactive: 105% and inactive: 116% | inactive: 95.6% and inactive: 60.4% | inactive: 97.1% and inactive: 98.7% | inactive: 104% and inactive: 95.9% | inactive: 91.6% and inactive: 110% | inactive: 106% and inactive: 87.1% | inactive: 98.5% and inactive: 96.7% | inactive: 92.6% and inactive: 102% | inactive: 110% and inactive: 123% | inactive: 94.6% and inactive: 83.1% | inactive: 107% and inactive: 98.9% | inactive: 96.6% and inactive: 92.1% | inactive: 80.7% and inactive: 88.7% | inactive: 101% and inactive: 99.8% | inactive: 105% and inactive: 98.9% | inactive: 95.4% | inactive: 104% and inactive: 105% | inactive: 111% and inactive: 94.3% | inactive: 96.2% and inactive: 103% |
| Cc1nn(Cc2ccccc2)c(C)c1C1(O)C[C@H](CC#N)OC1=O (stereo not given in full) | inactive: 119% | inactive: 114% | inactive: 105% | inactive: 110% | inactive: 111% | inactive: 102% | inactive: 97.2% | inactive: 104% | inactive: 107% | inactive: 125% | inactive: 101% | inactive: 104% | inactive: 109% | inactive: 109% | inactive: 158% | inactive: 109% | inactive: 121% | inactive: 135% | inactive: 127% | inactive: 105% |
